Measured values: US11077120B2, “Prostaglandin receptor EP2 antagonists, derivatives, compositions, and uses related thereto” (Emory University, priority 2014, dated 2021)

Protein sequences, listed by entry. Tags and fused reporters are not part of them. Lines headed by an entry give the natural chain unless they say otherwise; changes in a name come on top.
UniProt P43119: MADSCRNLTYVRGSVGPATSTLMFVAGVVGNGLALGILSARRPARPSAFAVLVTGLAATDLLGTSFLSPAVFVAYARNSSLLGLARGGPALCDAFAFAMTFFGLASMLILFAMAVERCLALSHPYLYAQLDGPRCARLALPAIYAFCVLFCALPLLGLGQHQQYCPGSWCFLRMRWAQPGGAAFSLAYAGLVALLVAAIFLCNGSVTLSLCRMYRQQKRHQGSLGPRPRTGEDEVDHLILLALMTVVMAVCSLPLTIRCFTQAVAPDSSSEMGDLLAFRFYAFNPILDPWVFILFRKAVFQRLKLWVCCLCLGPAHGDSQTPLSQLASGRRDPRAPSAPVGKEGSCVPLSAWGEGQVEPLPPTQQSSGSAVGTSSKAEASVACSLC
UniProt P35408: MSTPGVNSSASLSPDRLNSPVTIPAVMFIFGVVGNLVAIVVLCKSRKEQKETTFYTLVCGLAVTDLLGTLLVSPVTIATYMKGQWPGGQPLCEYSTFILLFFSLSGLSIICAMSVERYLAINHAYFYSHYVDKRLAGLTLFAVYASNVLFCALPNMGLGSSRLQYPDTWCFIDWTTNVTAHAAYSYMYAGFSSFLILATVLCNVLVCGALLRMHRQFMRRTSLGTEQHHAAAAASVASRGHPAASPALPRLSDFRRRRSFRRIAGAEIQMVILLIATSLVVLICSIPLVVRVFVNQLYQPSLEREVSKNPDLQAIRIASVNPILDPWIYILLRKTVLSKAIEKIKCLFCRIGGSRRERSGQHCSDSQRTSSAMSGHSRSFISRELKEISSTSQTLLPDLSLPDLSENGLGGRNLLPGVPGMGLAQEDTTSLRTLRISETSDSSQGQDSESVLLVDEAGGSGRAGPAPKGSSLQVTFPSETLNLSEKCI

Experiments:
human IP receptors = target: T1, human IP receptors (Homo sapiens, UniProt P43119); assay: cell-based cAMP TR-FRET assay, IP (agonist iloprost); settings: Table 2
T1 construct: expressed in transfected cells
Experimental: (§1) These derivatives were selected for testing against EP4 and IP receptors. Cell lines were created that overexpress EP4 receptors, or IP receptors on C6-glioma cells. A cAMP-derived TR-FRET assay was developed using agonists PGE2 (for EP4) and iloprost (for IP), similar to EP2 assay.
(§2) Intracellular cAMP was measured with a cell-based homogeneous time-resolved fluorescence resonance energy transfer (TR-FRET) method (Cisbio Bioassays). […] Endogenous cAMP produced by cells competes with labeled cAMP for binding to the cAMP antibody and thus reduces the FRET signal. Cells stably expressing human DP1, EP2, EP4, or IP receptors were seeded into 384-well plates in 30 μl complete medium (4,000 cells/well) and grown overnight. The medium was carefully withdrawn and 10 μl Hanks' Buffered Salt Solution (HBSS) (Hyclone) containing 20 μM rolipram was added into the wells to block phosphodiesterases. […] After 60-90 min incubation at room temperature, the FRET signal was measured by an Envision 2103 Multilabel Plate Reader (PerkinElmer Life Sciences) with a laser excitation at 337 nm and dual emissions at 665 nm and 590 nm for d2 and Cryptate (50 s delay), respectively. The FRET signal was expressed as: F665/F590×10^4.

C6-glioma cells = settings: rat
human EP4 receptors = target: T2, human EP4 receptors (Homo sapiens, UniProt P35408); assay: cell-based cAMP TR-FRET assay, EP4 (agonist PGE2)
T2 construct: expressed in transfected cells
Experimental: as §1, §2

human DP1 receptors = target: T3, human DP1 receptors (Homo sapiens, UniProt Q13258); assay: cell-based cAMP TR-FRET assay, DP1 (agonist BW245C); settings: Table 2
T3 construct: expressed in transfected cells
T3 sequence (Q13258 1-359): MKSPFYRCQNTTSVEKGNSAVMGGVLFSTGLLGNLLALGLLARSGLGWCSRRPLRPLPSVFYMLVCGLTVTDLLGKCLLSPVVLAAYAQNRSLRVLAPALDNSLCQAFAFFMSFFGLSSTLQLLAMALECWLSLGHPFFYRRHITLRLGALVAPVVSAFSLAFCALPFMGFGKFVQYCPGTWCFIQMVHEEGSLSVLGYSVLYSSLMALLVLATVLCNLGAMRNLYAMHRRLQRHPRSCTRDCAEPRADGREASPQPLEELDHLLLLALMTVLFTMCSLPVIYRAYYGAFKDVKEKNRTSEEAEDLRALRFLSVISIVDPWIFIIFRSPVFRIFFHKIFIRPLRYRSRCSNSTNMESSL
Experimental: The synthesis was carried out starting from commercially available 2-methyl indole or 2-trifluoromethyl indoles (11a-c), which on treatment with bromoacetonitrile provided intermediates (12a-c), which then were subjected to lithium aluminum hydride to reduce cyanide to amines. […] Synthesized derivatives were tested by using a cAMP-derived TR-FRET assay, at single concentration (1 μM) to observe a rightward shift of PGE2 (an EP2 agonist) concentration response curve in a C6G cell line that overexpresses human EP2 receptors.
Intracellular cAMP was measured with a cell-based homogeneous time-resolved fluorescence resonance energy transfer (TR-FRET) method (Cisbio Bioassays). […] Endogenous cAMP produced by cells competes with labeled cAMP for binding to the cAMP antibody and thus reduces the FRET signal. Cells stably expressing human DP1, EP2, EP4, or IP receptors were seeded into 384-well plates in 30 μl complete medium (4,000 cells/well) and grown overnight. The medium was carefully withdrawn and 10 μl Hanks' Buffered Salt Solution (HBSS) (Hyclone) containing 20 μM rolipram was added into the wells to block phosphodiesterases. […] The FRET signal was expressed as: F665/F590×10^4.

[1] = in vivo pharmacokinetic study of 7z (ip vs po); settings: intraperitoneal vs oral route

## Cc1cc2ccccc2n1CCNC(=O)c1ccc(-c2nnn[nH]2)cc1 [Compound 7z]
Human IP receptors
  Selective Index (IP/EP2): 1040
C6-glioma cells
  Therapeutic Index (CC50/EP2 KB): >13,450
Human EP4 receptors; EP2 over EP4
  selectivity over EP4: ~600 fold
Human EP4 receptors; Table 2
  Selective Index EP4/EP2: 584
Human DP1 receptors
  Selective Index (DP1/EP2): 29
[1]
  fold higher peak concentrations in plasma, ip in comparison to po: about 12 fold
